Literature values, collected in patent publication US6509030B2, “Cultured fish carotenoid and polyphenol added feed for improving fish body color tone and fish meat brilliance” (Toshiyuki Sakiura, priority 2000, dated 2003).
Where two headings read alike, the source gives them in different places.

Substance: proanthocyanidin
- chemical stability, acidic: Stable
- chemical stability, acidic (listed as proanthocyanidin): stable
- chemical stability, basic (basic): Very unstable
- chemical stability, neutral (neutral): A little unstable
